The compounds below were run against T1, ORL-1 receptor (Homo sapiens, UniProt P41146) (assay: Agonist activity: stimulation of [35S]-GTPγS binding). Conditions: compound at 100 nM.
Format: biochemical

By UniProt entry, the sequences of proteins in these tests, tags left out. Where a name states a change or a piece, a line headed by the entry shows the natural chain unless it says otherwise.
UniProt P41146: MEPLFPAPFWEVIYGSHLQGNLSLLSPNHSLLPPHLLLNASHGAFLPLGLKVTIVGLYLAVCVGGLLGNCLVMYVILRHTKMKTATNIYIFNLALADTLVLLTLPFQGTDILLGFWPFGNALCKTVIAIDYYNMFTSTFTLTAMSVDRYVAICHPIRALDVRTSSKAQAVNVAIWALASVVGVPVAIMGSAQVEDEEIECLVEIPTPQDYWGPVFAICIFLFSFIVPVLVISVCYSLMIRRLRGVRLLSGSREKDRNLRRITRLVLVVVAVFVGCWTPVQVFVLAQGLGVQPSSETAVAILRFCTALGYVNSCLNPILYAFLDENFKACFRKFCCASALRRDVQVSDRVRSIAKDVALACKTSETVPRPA

Going from CCCCC(c1ccc(F)cc1)N1CCC2(CC1)C(=O)NCN2c1ccccc1 (stereo not shown) to CCCCCC(c1ccccc1)N1CCC(O)(c2ccccc2CN)CC1 (stereo not shown), the “% Stimulation of [35S]-GTPγS binding to human ORL-1 receptor @ 100 nM” value (“% Stimulation of [35S]-GTPγS binding” below) falls from 107% to 59%.

First: COCCn1c(=O)n(C2CCN(C(c3ccccc3Cl)c3ccccc3Cl)CC2)c2ccccc21
Second: NC(=O)Cn1c(=O)n(C2CCN(C(c3ccccc3)c3ccccc3)CC2)c2ccccc21
The “% Stimulation of [35S]-GTPγS binding” value of the first is lower: 15% for the first, 43% for the second.

Going from NCc1ccccc1C1(O)CCN(Cc2ccccc2Cl)CC1 to NCc1ccccc1C1(O)CCN(C(c2ccccc2Cl)c2ccccc2Cl)CC1, the “% Stimulation of [35S]-GTPγS binding” value rises from 43% to 71%.

Going from OC1(c2ccccc2)CC2CCC(C1)N2C(c1ccccc1Br)c1ccccc1Br (stereo not shown) to OC1(c2ccccc2)CC2CCC(C1)N2C(c1ccccc1)c1ccccc1F (stereo not shown), the “% Stimulation of [35S]-GTPγS binding” value rises from 70% to 120%.

In the case of O=C1N(CCN2CCC[C@@H]2CO)CN(c2ccccc2)C12CCN(C(c1ccccc1Cl)c1ccccc1Cl)CC2, the “% Stimulation of [35S]-GTPγS binding” value is reported as 77%.

Each compound was assayed against T1, ORL-1 receptor (assay: Nociceptin binding assay ([125I][Tyr14]nociceptin, CHO cell membranes)). Conditions: CHO cell membrane preparation expressing the ORL-1 receptor.

Compared with c1ccc(C(c2ccccc2)N2CCC3(CC2)OCc2ccccc23)cc1, NC1(c2ccccc2)CCN(C(c2ccccc2)c2ccccc2)CC1 is 2.6-fold higher in Ki: 77 nM for the first, 200 nM for the second. The first binds more tightly here.

Going from OC1(c2ccc(Br)cc2)CCN(C(c2ccccc2)c2ccccc2)CC1 to NCc1ccccc1C1(O)CCN(C(c2ccccc2Cl)c2ccccc2Cl)CC1, the Ki falls from 60 nM to 0.6 nM (100-fold).

Reference: patent publication US6716846B2, “High affinity ligands for nociceptin receptor ORL-1” (Schering Corporation, priority 1998, dated 2004)
